Apparent affinities of Ab-14 variants for a coronavirus HR2 peptide

The target is the same throughout: PDVDLGDISGINAS, from the HR2 region of SARS-CoV-2 spike.

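These sequences belong to a second round, designed from the earlier measurements on random variants of the parent. Group labels follow the data file (Ctrl: baseline library sampled from a position-specific scoring matrix, with some repeated check sequences; GP: Gaussian process model; Gen: genetic algorithm; a sequence that several methods proposed may carry one label only). The scFvs were displayed on barcoded MATa yeast, the peptide on MATalpha yeast. Pairs that bind mate more often; barcode pairs of the diploids are counted by sequencing. Read counts were normalised to the haploid input and turned into Kd by a linear fit to BCL2-family pairs of known affinity, for each replicate. There are six technical replicates.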

Parent: Ab-14, a human scFv built as VH, a 15-residue (Gly4Ser)3 linker, VL. Only the CDRs of the light chain vary.
VH: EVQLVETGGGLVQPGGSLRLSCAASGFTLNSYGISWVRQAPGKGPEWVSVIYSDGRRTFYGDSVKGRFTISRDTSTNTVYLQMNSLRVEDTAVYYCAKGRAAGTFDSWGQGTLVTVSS
VL: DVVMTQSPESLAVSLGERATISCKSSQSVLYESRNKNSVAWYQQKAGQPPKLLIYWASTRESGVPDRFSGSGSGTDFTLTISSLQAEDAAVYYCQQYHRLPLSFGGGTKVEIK

Variants are written as CDR1, CDR2 and CDR3 of the light chain (limits as in the source). Parent: KSSQSVLYESRNKNSVA, WASTRES, QQYHRLPLS. Values are log10 of the apparent Kd in nM; lower means stronger binding. The mean shown is taken over the replicates in which the pair was detected. A pair that was not seen in that replicate is written "n.d."; this usually means weak binding, but a binder can also be missed. The authors' rule: three or more of the six replicates give a measured affinity, fewer mean a poor binder. Of ten entries with the parent sequence, four were seen in most replicates (averages 0.34 to 2.37), three in one and three in none, so single entries are noisy. A sequence measured in both rounds can read differently, since the two assays cover different ranges. Where one sequence has several entries in the source, the replicates are listed entry by entry, parted by semicolons. As a blank, each scFv also met three strains without target: over all light chain designs, 4% of these pairings were detected, typically at 2.64 and seldom below 1.59. For each scFv, signals with the empty controls are counted beside the result, with their mean in brackets.

CDR-L1	CDR-L2	CDR-L3	group	log10 Kd (nM) by replicate	mean log10 Kd (nM)	control signals
KSSTSNLGELRNKNSVA	WASMRES	QQYHRLPMS	Ctrl	n.d. / n.d. / n.d. / 2.87 / n.d. / n.d.	2.87	0/18
KSSQSVLYQSRNKNSVA	WASTRES	QQYHRLPLS	Ctrl	n.d. / n.d. / n.d. / n.d. / n.d. / n.d.	n.d.	0/18
KVSQSVLLESTNKNSVA	AASTRES	QQYHRLPLS	Ctrl	0.56 / 0.71 / 0.74 / 0.74 / 0.76 / 0.76	0.71	0/18
KVRQSVLYESRNKNSVA	DAFTRAS	QQYRELPLS	Ctrl	0.17 / 0.02 / -0.12 / -0.10 / 0.06 / 0.06	0.01	1/18 (3.70)
KIYQSVLYESRNKNSVA	AASTRES	QQYHRLPLS	Ctrl	1.36 / 1.61 / 0.39 / 1.12 / 0.67 / 0.20	0.89	0/18
KSSQSVLYESRNKNSVA	WCNTRES	QQYHRLPLS	Ctrl	n.d. / n.d. / n.d. / n.d. / n.d. / n.d.	n.d.	0/18
KSSQSVLYESRNKNSVA	SASTREW	QQYHDLPLS	Ctrl	2.43 / n.d. / n.d. / n.d. / n.d. / n.d.	2.43	0/18
KSSQSVVYESRNKNSVA	RASTRES	QQCHRLPLS	Ctrl	1.29 / 1.58 / 2.49 / n.d. / 1.19 / 1.47	1.60	1/18 (2.48)
KWSQSVLYESRNKNSVA	RASTRIS	QQYHRTPLS	Ctrl	n.d. / n.d. / n.d. / n.d. / n.d. / n.d.	n.d.	2/18 (1.08)
KQSQEVLYESRNKNSVA	WASTRES	QQYHRLPLS	Ctrl	n.d. / n.d. / n.d. / n.d. / n.d. / n.d.	n.d.	0/18
KMSQSVLYESFNDNSVA	WASTRES	QQYQCLPLS	Ctrl	n.d. / n.d. / n.d. / n.d. / n.d. / n.d.	n.d.	1/18 (1.82)
KLSQSQLYESRNKNSVA	EASTRES	QQYHRLPLS	Ctrl+GP_Gen	0.04 / -0.10 / -0.01 / -0.28 / -0.10 / 0.12; 0.17 / 0.11 / 0.13 / 0.09 / -0.08 / 0.20	0.02	3/36 (3.19)
KSPQSVPYESRNKNSFA	GASTRES	QQYHRLPLS	Ctrl	0.81 / 1.03 / 1.25 / 0.69 / 0.67 / 0.49	0.82	0/18
KSSQAVLYESRNKNSVA	DASIRES	QQYHRLPLS	Ctrl	0.05 / -0.14 / -0.21 / -0.30 / -0.18 / 0.02	-0.13	0/18
KSSQSVLYESRNKNSVA	WASTRES	QQYHRLPLH	Ctrl	n.d. / n.d. / 1.62 / 2.15 / n.d. / 3.16	2.31	2/18 (2.01)
KLSQSVLYDSRNKNSVA	WASMRES	QQYFRLPLS	Ctrl	-0.02 / 1.13 / 1.17 / -0.32 / 0.27 / 0.74	0.50	0/18
KSSQSVLYESRNKGSVA	NASTRES	QQYHYLPLS	Ctrl	n.d. / n.d. / 1.35 / 2.58 / n.d. / 2.75	2.23	0/18
KLSQSVLYESRNKNSVA	HASTRES	QQIDRLPNS	Ctrl	2.77 / n.d. / n.d. / n.d. / 3.34 / n.d.	3.05	0/18
KSSQSNLYESRQKNSVA	WASTRES	QQYHRLPLS	Ctrl	n.d. / n.d. / n.d. / n.d. / n.d. / n.d.	n.d.	0/18
KSSQSVLTESQNSHSVA	WASTRES	QQYHRLPLS	Ctrl	0.52 / 1.85 / 0.77 / 0.70 / 0.98 / 1.69	1.09	3/18 (3.00)
KSSHSVLYESRNKNSIA	GASIRES	QDQHRLPLS	Ctrl	n.d. / n.d. / n.d. / 1.93 / n.d. / n.d.	1.93	1/18 (1.93)
KSSQSVLYFERNKNSIA	WASTRES	QMYHRLTLS	Ctrl	n.d. / n.d. / n.d. / n.d. / n.d. / n.d.	n.d.	0/18
KSSQQELYESQNKNSVA	KASTREL	QQYHRLPLS	Ctrl	0.99 / 0.58 / 1.07 / 0.94 / 0.59 / 0.90	0.85	2/18 (2.14)
KSSQEVLYESRNKNSVA	QASTRES	QQYGRLPLG	Ctrl	1.86 / 1.66 / n.d. / 1.97 / 2.00 / 3.87	2.27	0/18
KSSQSVLYESRNKNSVA	GASTRES	QQYHRLWLS	Ctrl	n.d. / n.d. / n.d. / n.d. / n.d. / n.d.	n.d.	0/18
KCSQSVLYEDRNKNSVA	WANTRES	QQYHRLPLS	Ctrl	2.44 / 1.25 / 1.45 / 1.30 / 1.66 / 1.47	1.60	1/18 (2.34)
KSAQSWLYESRYKNDVA	WASTRES	QYYLRLPLS	Ctrl	n.d. / n.d. / n.d. / n.d. / n.d. / n.d.	n.d.	0/18
KSSQSVQQESTNKNSVA	WASTRES	QQYHRLPLS	Ctrl	2.15 / 1.49 / 1.65 / 2.15 / 2.78 / 2.31	2.09	1/18 (2.39)
KSSQSVLYESRNKNSVA	WASTRHS	NQYHRLNLM	Ctrl	n.d. / n.d. / n.d. / 2.57 / n.d. / 2.05	2.31	1/18 (1.80)
KSSQKVLKESRNKNSVA	WCSTRES	QQYHRLPLS	Ctrl	n.d. / n.d. / 1.75 / n.d. / n.d. / n.d.	1.75	1/18 (2.55)
KSSQSVLFESPNKNSVA	WASTRES	QQYHRLPWS	Ctrl	n.d. / n.d. / n.d. / n.d. / 2.91 / n.d.	2.91	0/18

A selection of 3 entries from above:

| CDR-L1 | CDR-L2 | CDR-L3 | group | log10 Kd (nM) by replicate | mean log10 Kd (nM) | control signals |
|---|---|---|---|---|---|---|
| KVSQSVLLESTNKNSVA | AASTRES | QQYHRLPLS | Ctrl | 0.56 / 0.71 / 0.74 / 0.74 / 0.76 / 0.76 | 0.71 | 0/18 |
| KSSQKVLKESRNKNSVA | WCSTRES | QQYHRLPLS | Ctrl | n.d. / n.d. / 1.75 / n.d. / n.d. / n.d. | 1.75 | 1/18 (2.55) |
| KSPQSVPYESRNKNSFA | GASTRES | QQYHRLPLS | Ctrl | 0.81 / 1.03 / 1.25 / 0.69 / 0.67 / 0.49 | 0.82 | 0/18 |

Values reported by Li et al. 2023, doi:10.1038/s41467-023-39022-2 (FLAb copy).